Test results: paper PMC4510350 (PLoS Neglected Tropical Diseases, 2015)

What was measured:
B. thailandensis (E264) = conditions: 3 h, pH 7.4
[1] = at the antimicrobial concentrations used; cited from earlier work

**Q.** With `CC[C@H](C)[C@H](NC(=O)[C@@H](NC(=O)[C@H](CCCCN)NC(=O)[C@@H]1CCCN1C(=O)[C@H](CCCCN)NC(=O)[C@H](CCCCN)NC(=O)[C@H](Cc1ccccc1)NC(=O)[C@H](Cc1ccccc1)NC(=O)[C@H](CCCCN)NC(=O)[C@H](CCCCN)NC(=O)[C@H](C)NC(=O)[C@H](CCCNC(=N)N)NC(=O)[C@H](CCCCN)NC(=O)[C@H](CCCCN)NC(=O)[C@@H](NC(=O)[C@H](CO)NC(=O)[C@H](CC(N)=O)NC(=O)[C@H](CCCCN)NC(=O)[C@H](CC(C)C)NC(=O)[C@H](CCCCN)NC(=O)[C@H](CCCCN)NC(=O)[C@H](Cc1ccccc1)NC(=O)[C@H](Cc1ccccc1)NC(=O)[C@H](CCCCN)NC(=O)[C@H](CCCCN)NC(=O)[C@H](Cc1ccccc1)NC(=O)[C@H](CCCNC(=N)N)NC(=O)[C@@H](N)CCCCN)C(C)C)C(C)C)C(=O)NCC(=O)N[C@H](C(=O)N[C@H](C(=O)N[C@@H](Cc1ccccc1)C(=O)N1CCC[C@H]1C(=O)N[C@@H](Cc1ccccc1)C(=O)O)[C@@H](C)O)C(C)C` [NA-CATH] as the molecule, how does the EC50 (B. thailandensis (E264)) read?
**A.** 0.877 µM

**Q.** What about the hemolysis [1] of the same molecule?
**A.** no hemolysis
